Data as given in patent US7358236B1 (priority 2002, dated 2008).
Only a part of the results on these compounds is given; other tests are left out.

Key:
[1] = MABP and heart rate in tumor-bearing, VTA-treated rats 1 hour after dosing; conditions: antihypertensive co-administered with CA-4DP 30 mg/kg i.p.
P22 rat carcinosarcoma = test: Tumor blood flow (THF) measured with radioactive tracer 125I-iodoantipyrine; conditions: antihypertensive co-administered with CA-4DP 30 mg/kg i.p., approximately 1 hour after treatment
[2] = Control of blood pressure (MABP via arterial cannula) in VTA-treated anaesthetized healthy rats; conditions: SNP infused 20 ug/kg/min at first sign of MABP increase after CA-4DP 30 mg/kg

Disodium Pentacyaanonitrosylferrate (2-)dihydrate
MABP ([1]; 1 hour after CA-4DP dosing): 82.7 mmHg | Heart Rate ([1]; 1 hour post CA-4DP dosing): 414.4 bpm | Tumor blood flow, % of control (P22 rat carcinosarcoma): 12.6 % of control | Effect on CA-4DP-induced MABP increase [2]: prolonged stabilization of MABP
